Earlier results, collected in patent US20050054726A1, “Vaccine” (priority 2001, published 2005).

Target: iNOS (Homo sapiens, UniProt P35228)
Conditions: category per Alderton et al., Biochem J. (2001) 357, 593-615; cited from earlier work

## CNC(=N)NCCC[C@H](N)C(=O)O [L-NMMA]
  selectivity category of iNOS inhibitor: non-selective (Inhibitors with less than 10-fold selectivity for one particular NOS-type)
